Patent US20240116920A1 (priority 2020, published 2024)

Amino acid sequences for entries named in this document (tags omitted). A change or cut given only in a name is not applied to a line headed by its entry.
UniProt P29597: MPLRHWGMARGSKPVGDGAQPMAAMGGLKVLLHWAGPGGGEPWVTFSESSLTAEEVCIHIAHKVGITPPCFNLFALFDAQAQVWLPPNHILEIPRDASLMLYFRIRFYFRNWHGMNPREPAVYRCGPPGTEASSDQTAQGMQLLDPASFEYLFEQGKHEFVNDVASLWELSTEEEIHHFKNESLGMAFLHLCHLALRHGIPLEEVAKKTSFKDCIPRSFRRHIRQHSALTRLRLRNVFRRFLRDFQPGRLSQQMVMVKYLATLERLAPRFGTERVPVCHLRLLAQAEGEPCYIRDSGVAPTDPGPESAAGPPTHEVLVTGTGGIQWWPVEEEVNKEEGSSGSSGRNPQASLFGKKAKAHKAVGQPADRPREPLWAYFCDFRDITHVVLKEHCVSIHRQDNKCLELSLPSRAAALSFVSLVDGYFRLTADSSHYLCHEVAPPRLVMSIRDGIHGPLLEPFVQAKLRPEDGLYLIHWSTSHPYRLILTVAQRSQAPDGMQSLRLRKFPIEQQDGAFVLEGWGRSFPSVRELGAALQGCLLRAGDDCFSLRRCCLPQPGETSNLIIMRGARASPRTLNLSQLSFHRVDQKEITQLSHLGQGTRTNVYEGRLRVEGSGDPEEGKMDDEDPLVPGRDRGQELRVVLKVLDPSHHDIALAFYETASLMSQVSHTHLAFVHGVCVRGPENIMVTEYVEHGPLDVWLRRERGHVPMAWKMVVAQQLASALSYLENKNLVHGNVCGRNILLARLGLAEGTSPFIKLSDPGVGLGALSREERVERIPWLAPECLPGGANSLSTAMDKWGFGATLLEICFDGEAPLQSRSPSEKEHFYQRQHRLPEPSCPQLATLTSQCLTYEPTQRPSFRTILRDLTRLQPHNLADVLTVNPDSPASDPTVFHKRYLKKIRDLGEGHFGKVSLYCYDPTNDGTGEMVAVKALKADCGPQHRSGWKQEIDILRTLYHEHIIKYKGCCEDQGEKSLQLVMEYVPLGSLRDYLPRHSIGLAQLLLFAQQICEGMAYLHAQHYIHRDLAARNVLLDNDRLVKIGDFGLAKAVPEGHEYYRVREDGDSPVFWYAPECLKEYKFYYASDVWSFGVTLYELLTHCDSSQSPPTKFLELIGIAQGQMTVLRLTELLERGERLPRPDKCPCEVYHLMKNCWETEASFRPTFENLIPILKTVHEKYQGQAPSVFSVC
UniProt O60674: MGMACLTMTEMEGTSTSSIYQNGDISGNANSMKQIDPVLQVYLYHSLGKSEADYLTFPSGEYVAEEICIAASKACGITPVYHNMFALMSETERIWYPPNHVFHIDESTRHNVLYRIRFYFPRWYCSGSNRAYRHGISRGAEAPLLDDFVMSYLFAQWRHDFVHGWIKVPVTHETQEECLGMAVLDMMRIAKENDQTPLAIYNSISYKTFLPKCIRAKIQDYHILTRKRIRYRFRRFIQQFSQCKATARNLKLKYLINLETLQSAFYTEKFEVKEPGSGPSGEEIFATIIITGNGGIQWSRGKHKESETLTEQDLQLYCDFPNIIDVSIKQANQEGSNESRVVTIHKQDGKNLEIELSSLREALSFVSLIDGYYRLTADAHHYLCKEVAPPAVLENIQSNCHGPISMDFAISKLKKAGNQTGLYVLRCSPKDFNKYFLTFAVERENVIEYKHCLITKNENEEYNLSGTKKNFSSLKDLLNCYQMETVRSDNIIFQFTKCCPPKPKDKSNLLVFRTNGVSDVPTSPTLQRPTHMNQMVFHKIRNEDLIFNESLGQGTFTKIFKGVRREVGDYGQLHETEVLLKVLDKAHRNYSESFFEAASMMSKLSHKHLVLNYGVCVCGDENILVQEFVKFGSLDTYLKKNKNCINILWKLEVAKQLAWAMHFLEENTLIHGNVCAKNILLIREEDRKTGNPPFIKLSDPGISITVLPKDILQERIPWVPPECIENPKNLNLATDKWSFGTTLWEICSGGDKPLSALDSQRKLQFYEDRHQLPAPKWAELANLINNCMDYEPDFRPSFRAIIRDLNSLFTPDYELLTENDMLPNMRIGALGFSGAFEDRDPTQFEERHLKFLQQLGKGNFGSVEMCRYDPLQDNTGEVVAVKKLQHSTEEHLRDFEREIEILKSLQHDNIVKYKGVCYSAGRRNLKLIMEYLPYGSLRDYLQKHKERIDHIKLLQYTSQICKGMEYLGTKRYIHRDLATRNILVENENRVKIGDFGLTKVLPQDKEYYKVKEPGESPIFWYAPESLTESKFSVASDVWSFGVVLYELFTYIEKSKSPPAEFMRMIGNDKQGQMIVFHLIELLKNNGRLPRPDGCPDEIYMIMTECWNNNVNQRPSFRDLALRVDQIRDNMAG

Key:
TYK2 [1] = biological target: T1, TYK2 (Homo sapiens, UniProt P29597); details: read-out: IC50 TYK2
JAK2 = JAK2 (Homo sapiens, UniProt O60674); details: read-out: IC50 JAK2
TYK2 [2] = biological target: T1, TYK2; test: biochemical

Compound: 4-(42S,4S)-1-(4-Chlorobenzyl)-2-methylpiperidin-4-yl)amino)-N-methyl-1H-pyrrolo[2,3-b]pyridine-5-carboxamide [56a]
- IC50 (TYK2 [1]): 9.32 nM

Compound: 4-(42S,4S)-1-(4-trifluoromethyl)-2-methylpiperidin-4-yl)amino)-N-methyl-1H-pyrrolo[2,3-b]pyridine-5-carboxamide [57a]
- IC50 (JAK2): 16.8 nM
- IC50 (TYK2 [1]): 58.3 nM

Compound: O=C(Nc1nc2cccc(-c3ccc(CN4CCS(=O)(=O)CC4)cc3)n2n1)C1CC1 [filgotinib, reference compound]
- IC50 (TYK2 [2]): 71.5 nM

Where two headings read alike, the source gives them in different places.
